Earlier results as cited in US9238053B2, “Methods for treatment of pain” (Nocicepta LLC, priority 2009, dated 2016).

The chains behind the UniProt entries cited, without tags or fusion partners. Where a name states a change or a piece, a line headed by the entry shows the natural chain unless it says otherwise.
UniProt P01210: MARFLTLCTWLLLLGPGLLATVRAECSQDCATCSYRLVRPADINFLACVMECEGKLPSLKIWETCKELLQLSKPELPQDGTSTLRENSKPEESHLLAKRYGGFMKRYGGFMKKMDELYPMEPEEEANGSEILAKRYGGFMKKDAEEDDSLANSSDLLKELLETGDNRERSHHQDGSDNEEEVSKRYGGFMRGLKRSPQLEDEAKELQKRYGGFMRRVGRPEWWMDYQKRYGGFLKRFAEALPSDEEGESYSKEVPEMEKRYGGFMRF

System: mice
Details: cited from earlier work

Question: With “leucine enkephalin (YGGFL; Leu-enkephalin; UniProt P01210 230-234, looked up) [an opioid peptide]” as the substance, how does the “analgesic effect in acetic acid writhing test” value (nasal administration alone, mice) read?
Answer: Its value is “very limited analgesic effect”.

Question: What about the “analgesic effect in acetic acid writhing test” value (nasally administered with mixed enzyme inhibitors and absorption enhancers) of the same substance?
Answer: Its value is “high analgesic activity”.

Where two headings read alike, the source gives them in different places.
